## Apparent affinities of Ab-14 variants for a coronavirus HR2 peptide

Reference: Li et al. 2023, doi:10.1038/s41467-023-39022-2. File: FLAb, binding data.

The target is the same throughout: PDVDLGDISGINAS, from the HR2 region of SARS-CoV-2 spike.

Ab-14 is the parent antibody, in scFv form: VH, then three GGGGS repeats, then VL. The light chain is unchanged in all variants.
VH: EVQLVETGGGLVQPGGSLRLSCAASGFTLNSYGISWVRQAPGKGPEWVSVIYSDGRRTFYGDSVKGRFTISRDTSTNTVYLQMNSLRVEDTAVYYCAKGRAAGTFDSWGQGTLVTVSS
VL: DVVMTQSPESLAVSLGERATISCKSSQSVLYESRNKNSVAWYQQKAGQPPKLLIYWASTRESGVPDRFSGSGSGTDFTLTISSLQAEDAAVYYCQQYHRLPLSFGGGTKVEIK

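The variants were designed computationally from a first round of random CDR variants and then made and measured. Several design methods are mixed in this list. Affinity was read by AlphaSeq, a pooled yeast mating assay with surface-displayed partners. Pairs that bind mate more often; barcode pairs of the diploids are counted by sequencing. A regression on co-assayed BCL2-family reference pairs converts the normalised counts of each replicate to an apparent Kd. Mating was done six times.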

Variants are written as CDR1, CDR2 and CDR3 of the heavy chain (limits as in the source). Parent: GFTLNSYGIS, VIYSDGRRTFYGDSVK, GRAAGTFDS. Each Kd is an estimate from the mating assay, the geometric mean of the replicates in which the pair was seen; lower is stronger. Where no diploid with the target was found in any replicate, the entry reads "not detected": below detection, most likely a poor binder, though not proof of it. Order: sorted from the lowest average up, undetected variants last.

| # | CDR-H1 | CDR-H2 | CDR-H3 | apparent Kd | replicates with signal |
|---|---|---|---|---|---|
| 1 | GFDLNEYGIS | VIYADGLRTFYADSVK | GNVAGTFDV | 140 pM | 6/6 |
| 2 | GFDLNEYGIS | VIYADGKRTAYIDSVK | GHAAGTFDS | 190 pM | 6/6 |
| 3 | GFDLDEYGIS | VIYADGMRTAYVDSVK | GENAGTFDV | 210 pM | 6/6 |
| 4 | GFDLNEYGIS | VIYADGMRTFYADSVK | GQNAGTFDV | 250 pM | 6/6 |
| 5 | GFDLNEYGIS | VIYADGIRTFYADSVK | GNEAGTFDS | 300 pM | 4/6 |
| 6 | GFELNDYGIS | VIYSDGRRTFYGDSVK | GREAGTFDT | 350 pM | 5/6 |
| 7 | GFDLNEYGIS | VIYADGQRTAYADDVK | GNNAGTFDL | 350 pM | 6/6 |
| 8 | GFDLNEYGIS | VIYADGMRTAYSDSVK | GKNAGTFDI | 400 pM | 6/6 |
| 9 | GFDLNEYGIS | VIYADGQRTAYVDDVK | GNVAGTFDV | 400 pM | 6/6 |
| 10 | GFDLNEYGIS | VIYADGKRTAYADKVK | GENAGTFDV | 420 pM | 6/6 |
| 11 | GFDLDEYGIS | VIYADGMRTVYADSVK | GENAGTFDI | 440 pM | 6/6 |
| 12 | GFTLDEYGIS | VIYADGRRTFYGDSVK | GRAAGTFDS | 490 pM | 6/6 |
| 13 | GFDLDEYGIS | VIYADGMRTFYADSVK | GNTAGTFDS | 500 pM | 6/6 |
| 14 | GFDLNEYGIS | VIYADGMRTAYADKVK | GEVAGTFDT | 600 pM | 6/6 |
| 15 | GFDLNEYGIS | VIYADGRRTAYSDSVK | GEAGGTFDI | 630 pM | 6/6 |
| 16 | GFNLNSYGIS | VIYADGRRTFYGDSVK | GEAAGTFDS | 770 pM | 6/6 |
| 17 | GFDLNEYGIS | VIYADGRRTAYSDSVK | GETAGTFDL | 830 pM | 6/6 |
| 18 | GFDLNEYGIS | VIYADGKRTAYADKVK | GENAGTFDI | 840 pM | 6/6 |
| 19 | GFSLNSYGIS | VIYSDGKRTFYIDSVK | GRAAGTFDS | 920 pM | 1/6 |
| 20 | GFELNEYGIS | VIYSDGKRTFYGDQVK | GRTAGTFDS | 1.2 nM | 6/6 |
| 21 | GFTLNEYGIS | VIYSDGRRTFYSDAVK | GRFAGTFDS | 1.3 nM | 6/6 |
| 22 | GFKLNSYGIS | VIYSDGRRTFYTDSVK | GKEAGTFDS | 1.4 nM | 6/6 |
| 23 | GFQLNEYGIS | VIYSDGRRTFYGDAVK | GRTAGTFDS | 1.8 nM | 6/6 |
| 24 | GFTLNEYGIS | VIYSDGRRTFYKDSVK | GRAAGTFDS | 2.0 nM | 12/12 |
| 25 | GFTLNSYGIS | VIYSDGQRTFYKDSVK | GRTAGTFDS | 2.2 nM | 5/6 |
| 26 | GFELNSYGIS | VIYSDGRRTFYGDSVK | GMNAGTFDT | 2.9 nM | 6/6 |
| 27 | GKTLNSYGIS | VIYSDGRRTFYGDSVK | GQTAGTFDT | 3.0 nM | 6/6 |
| 28 | GFELNSYGIS | VIYSDGKRTFYSDSVK | GRTAGTFDS | 3.4 nM | 6/6 |
| 29 | GFSLNSYGIS | VIYSDGRRTFYHDSVK | GRNAGTFDS | 3.6 nM | 6/6 |
| 30 | GFSLNEYGIS | VIYSDGRRTFYQDSVK | GKAAGTFDS | 3.8 nM | 1/6 |
| 31 | GFSLNSYGIS | VIYSDGKRTFYGDSVK | GRQAGTFDS | 4.5 nM | 6/6 |
| 32 | GFELNKYGIS | VIYSDGRRTFYGDSVK | GRMAGTFDS | 6.2 nM | 4/6 |
| 33 | GFTLNSYGIS | VIYSDGRRTFYDDNVK | GQNAGTFDS | 6.7 nM | 4/6 |
| 34 | GFTLNDYGIS | VIYSDGRRTFYADSVK | GRAAGTFES | 7.0 nM | 6/6 |
| 35 | GFQLESYGIS | VIYSDGRRTFYADQVK | GRTAGTFDS | 8.0 nM | 4/6 |
| 36 | GFDLNKYGIS | VIYSDGRRTMYGDSVK | GRQAGTFDS | 8.0 nM | 1/6 |

Second part, the sequence after the result:

| # | apparent Kd | replicates with signal | CDR-H1 | CDR-H2 | CDR-H3 |
|---|---|---|---|---|---|
| 37 | 9.0 nM | 6/6 | GFTLNSYGIS | VIYSDGRRTFYTDSVK | GETAGTFDS |
| 38 | 10 nM | 1/6 | GFTLNSYGIS | VIYSDGRKTFYGDSVK | GRTAGTFDS |
| 39 | 12 nM | 4/6 | GFSLNSYGIS | VIYSDGRRTFYGDPVK | GQTAGTFDS |
| 40 | 12 nM | 3/6 | GFHLNSYGIS | VIYSDGRRTFYGDSVK | GRNAGTFDT |
| 41 | 13 nM | 6/6 | GFTLNSYGIS | VIYADGRRTFYSDSTK | GRAAGTFDS |
| 42 | 13 nM | 6/6 | GFTLNSYGIS | VIYSDGRRTFYGDSVR | GEAAGTFDS |
| 43 | 15 nM | 1/6 | GFTLNEYGIS | VIYSDGRRTFYTDSVK | GRFAGIFDS |
| 44 | 17 nM | 3/6 | GFELNSYGIS | VIYSDGRRTFYSDSVK | GRSAGTFDS |
| 45 | 19 nM | 4/24 | GFTPNSYGIS | VIYSDGRRTFYGDSVK | GRAAGTFDS |
| 46 | 34 nM | 6/6 | GFDLNSYGIS | VIYSDGRRTFYIDKVK | GQAAGTFDS |
| 47 | 36 nM | 5/6 | GFNLNSYGIS | VIYSDGRRTFYGDNVK | GKQAGTFDS |
| 48 | 38 nM | 4/6 | GFTLNSYGIS | VIYSDGRRTFYGDSVK | GREPGTFDQ |
| 49 | 50 nM | 1/6 | GFTLNSYGIS | VIYSDGRRTFYKDSVA | GRAAGTFDS |
| 50 | 58 nM | 6/6 | GFLLNDYGIS | VIYSDGRRTFYGDSVK | GKAAGTFDS |
| 51 | 99 nM | 2/6 | GFTLCDYGIS | VIYSDGRRTQYIDSVK | GRAAGTFDS |
| 52 | 170 nM | 1/6 | GFTLNSYGIS | VIYSDGRRTFYGDSVC | GRAAGTFMS |
| 53 | 240 nM | 4/6 | KFSLNNYGIS | VIYSDGRRTFYGDSVK | GQTAGTFDS |
| 54 | 710 nM | 1/6 | GFTLESYGIS | VIYSDGRRTFYGDSVK | GQAAGTFSS |
| 55 | not detected | 0/6 | GFTLDSYGIS | VIYFDGRRTMYGDSVK | GRAAGTFDS |
| 56 | not detected | 0/6 | GFSLNWYGIS | VIYSDGRRTFYADSVK | GRTAGTFDS |
| 57 | not detected | 0/6 | GFNLDEYGIS | VIYADGQRTAYAQHVK | GTGGMGRGV |
| 58 | not detected | 0/6 | GFNLGEYGIS | VIYADGVRTAYVDKVK | GFGQVDSLI |
| 59 | not detected | 0/6 | GFDLNEYGIS | VIYSDGRRTFYGDSVK | GRAAGTFDE |
| 60 | not detected | 0/6 | GFNLEEYGIS | VIYADGFRAAYKDKVK | GDDILLGVD |
| 61 | not detected | 0/6 | GFDINEYGVS | VIYADGNRTMYQDQVK | GINGGSFVL |
| 62 | not detected | 0/6 | GDGLQEYGIS | VIYADGFRSSYANSVK | GTGTGIFMV |
| 63 | not detected | 0/6 | GPSLDEYGIS | VIYADGVRQFYADDVK | GGIAGQVNY |
| 64 | not detected | 0/6 | GFYLNEYGIS | VIYSDGRRTFYGDSVK | GQTAGTFDS |
| 65 | not detected | 0/6 | GRTLNSTGIS | VIYSDGRRTFYGDSVK | GWAAGTFDV |
| 66 | not detected | 0/6 | GFTLESYGIS | VIYADGRRTFYGDRVK | GRAAGTFDS |
| 67 | not detected | 0/6 | GFDLSEYGIS | VIYADGTRKSYADNVK | GDYHGVVST |
| 68 | not detected | 0/6 | GFTLNDYGIE | VIYSIPRRTFYGDSVK | GRAALTFIS |
| 69 | not detected | 0/6 | GFQLEEMGIS | VIYADGVRTAYSSKVK | GINGDFFDV |
| 70 | not detected | 0/6 | GFTLNEYGIS | VIYSDGRRTFYADSVK | GRFAGTFDR |
| 71 | not detected | 0/6 | GFTLNSYGIS | VIYSDGRRTFYTDSVK | GRAALTFES |
| 72 | not detected | 0/6 | HFTLNSYGIS | VIYSDGRRTFIADSVK | GRAAGTFDS |
| 73 | not detected | 0/6 | GFSLNSYGIS | VIYSDGRRTFYADSVK | GSAAGTFDN |

Picked from the list: the 12 lowest averages where every replicate gave a value.

CDR-H1,CDR-H2,CDR-H3,apparent Kd,replicates with signal
GFDLNEYGIS,VIYADGLRTFYADSVK,GNVAGTFDV,140 pM,6/6
GFDLNEYGIS,VIYADGKRTAYIDSVK,GHAAGTFDS,190 pM,6/6
GFDLDEYGIS,VIYADGMRTAYVDSVK,GENAGTFDV,210 pM,6/6
GFDLNEYGIS,VIYADGMRTFYADSVK,GQNAGTFDV,250 pM,6/6
GFDLNEYGIS,VIYADGQRTAYADDVK,GNNAGTFDL,350 pM,6/6
GFDLNEYGIS,VIYADGMRTAYSDSVK,GKNAGTFDI,400 pM,6/6
GFDLNEYGIS,VIYADGQRTAYVDDVK,GNVAGTFDV,400 pM,6/6
GFDLNEYGIS,VIYADGKRTAYADKVK,GENAGTFDV,420 pM,6/6
GFDLDEYGIS,VIYADGMRTVYADSVK,GENAGTFDI,440 pM,6/6
GFTLDEYGIS,VIYADGRRTFYGDSVK,GRAAGTFDS,490 pM,6/6
GFDLDEYGIS,VIYADGMRTFYADSVK,GNTAGTFDS,500 pM,6/6
GFDLNEYGIS,VIYADGMRTAYADKVK,GEVAGTFDT,600 pM,6/6

The authors averaged sequences with at least three values out of six and counted those with two or fewer as poor binders. Some sequences occur more than once in the pool; their replicates are pooled. Values of this round are not directly comparable with the first-round values of the same sequences. Background: pairings of all heavy chain designs with three empty control strains gave a value in 1% of cases (median 120 nM, 5th percentile 7.0 nM). Values in that range, when seen in few replicates, are hard to tell from nonspecific mating.